The text below walks through data of US11084781B2, “Diarylureas as CB1 allosteric modulators” (Research Triangle Institute, priority 2017, dated 2021).

Protein sequences, listed by entry. Tags and fused reporters are not part of them.
UniProt P21554, whole entry: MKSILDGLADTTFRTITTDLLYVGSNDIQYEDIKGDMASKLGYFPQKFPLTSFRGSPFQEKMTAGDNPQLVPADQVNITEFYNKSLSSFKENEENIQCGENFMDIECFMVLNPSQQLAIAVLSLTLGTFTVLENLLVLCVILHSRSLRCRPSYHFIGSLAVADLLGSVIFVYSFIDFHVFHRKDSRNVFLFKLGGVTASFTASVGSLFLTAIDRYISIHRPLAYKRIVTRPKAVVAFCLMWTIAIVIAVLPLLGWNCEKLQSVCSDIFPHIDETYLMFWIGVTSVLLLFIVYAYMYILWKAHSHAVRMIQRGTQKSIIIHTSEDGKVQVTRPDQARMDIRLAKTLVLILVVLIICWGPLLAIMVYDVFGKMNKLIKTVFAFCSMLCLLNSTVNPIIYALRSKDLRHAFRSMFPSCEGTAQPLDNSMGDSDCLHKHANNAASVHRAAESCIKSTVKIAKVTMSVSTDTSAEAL

The assay deals with T1, human CB1 receptor (Homo sapiens, UniProt P21554).
T1 construct: host or cells: CHO-RD-HGA16 cells (CHO cells overexpressing promiscuous Galpha16)
As to the kind of experiment: CB1 calcium mobilization assay (antagonist mode, against EC80 of CP55,940). The following applies: Table 1; against EC80 (100 nM) of CP55,940; mean ± S.E.M. The format is cell-based.

The IC50 is the concentration needed to halve the response being measured.

In the case of `O=C(Nc1ccc(Cl)cc1)Nc1cccc(-c2cccc(N3CCCC3)n2)c1` [Compound B, 1-(4-Chlorophenyl)-3-{3-[6-(pyrrolidin-1-yl)pyridin-2-yl]phenyl}urea, reference compound], the IC50 was determined as 33 ± 8 nM.
